Measured values taken from US11661431B2, “Thienopyrrole compounds” (Gilead Sciences, Inc., priority 2021, dated 2023).

Amino acid sequences for entries named in this document (tags omitted). Residues count along the entry.
UniProt Q9NR97, 27-1041 limits assumed: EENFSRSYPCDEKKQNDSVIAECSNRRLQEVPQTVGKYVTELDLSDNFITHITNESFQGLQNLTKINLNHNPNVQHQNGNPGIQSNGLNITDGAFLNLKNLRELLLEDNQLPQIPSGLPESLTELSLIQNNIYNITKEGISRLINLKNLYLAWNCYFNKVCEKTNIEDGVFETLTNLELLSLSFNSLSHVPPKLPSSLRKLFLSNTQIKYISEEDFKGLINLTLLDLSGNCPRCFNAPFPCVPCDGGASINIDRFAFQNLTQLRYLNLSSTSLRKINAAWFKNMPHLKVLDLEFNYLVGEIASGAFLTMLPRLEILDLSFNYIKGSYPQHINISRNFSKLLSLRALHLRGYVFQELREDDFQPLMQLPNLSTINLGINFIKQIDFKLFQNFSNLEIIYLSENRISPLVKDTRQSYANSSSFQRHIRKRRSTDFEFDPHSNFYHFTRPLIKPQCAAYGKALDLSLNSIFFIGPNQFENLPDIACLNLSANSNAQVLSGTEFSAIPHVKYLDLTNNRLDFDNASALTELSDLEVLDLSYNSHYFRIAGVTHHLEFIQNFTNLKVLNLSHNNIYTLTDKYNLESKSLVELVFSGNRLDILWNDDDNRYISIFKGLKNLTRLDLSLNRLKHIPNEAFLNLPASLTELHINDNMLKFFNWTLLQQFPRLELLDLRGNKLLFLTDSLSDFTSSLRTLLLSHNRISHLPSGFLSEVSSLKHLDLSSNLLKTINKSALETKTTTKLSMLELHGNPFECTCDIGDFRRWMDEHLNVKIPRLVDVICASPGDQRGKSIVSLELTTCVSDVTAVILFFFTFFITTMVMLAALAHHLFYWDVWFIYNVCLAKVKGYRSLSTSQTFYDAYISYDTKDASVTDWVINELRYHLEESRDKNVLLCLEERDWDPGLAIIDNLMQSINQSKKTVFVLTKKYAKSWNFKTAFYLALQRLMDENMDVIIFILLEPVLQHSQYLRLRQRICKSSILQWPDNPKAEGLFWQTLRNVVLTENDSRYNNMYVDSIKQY
UniProt Q9NYK1, 27-1049 limits assumed: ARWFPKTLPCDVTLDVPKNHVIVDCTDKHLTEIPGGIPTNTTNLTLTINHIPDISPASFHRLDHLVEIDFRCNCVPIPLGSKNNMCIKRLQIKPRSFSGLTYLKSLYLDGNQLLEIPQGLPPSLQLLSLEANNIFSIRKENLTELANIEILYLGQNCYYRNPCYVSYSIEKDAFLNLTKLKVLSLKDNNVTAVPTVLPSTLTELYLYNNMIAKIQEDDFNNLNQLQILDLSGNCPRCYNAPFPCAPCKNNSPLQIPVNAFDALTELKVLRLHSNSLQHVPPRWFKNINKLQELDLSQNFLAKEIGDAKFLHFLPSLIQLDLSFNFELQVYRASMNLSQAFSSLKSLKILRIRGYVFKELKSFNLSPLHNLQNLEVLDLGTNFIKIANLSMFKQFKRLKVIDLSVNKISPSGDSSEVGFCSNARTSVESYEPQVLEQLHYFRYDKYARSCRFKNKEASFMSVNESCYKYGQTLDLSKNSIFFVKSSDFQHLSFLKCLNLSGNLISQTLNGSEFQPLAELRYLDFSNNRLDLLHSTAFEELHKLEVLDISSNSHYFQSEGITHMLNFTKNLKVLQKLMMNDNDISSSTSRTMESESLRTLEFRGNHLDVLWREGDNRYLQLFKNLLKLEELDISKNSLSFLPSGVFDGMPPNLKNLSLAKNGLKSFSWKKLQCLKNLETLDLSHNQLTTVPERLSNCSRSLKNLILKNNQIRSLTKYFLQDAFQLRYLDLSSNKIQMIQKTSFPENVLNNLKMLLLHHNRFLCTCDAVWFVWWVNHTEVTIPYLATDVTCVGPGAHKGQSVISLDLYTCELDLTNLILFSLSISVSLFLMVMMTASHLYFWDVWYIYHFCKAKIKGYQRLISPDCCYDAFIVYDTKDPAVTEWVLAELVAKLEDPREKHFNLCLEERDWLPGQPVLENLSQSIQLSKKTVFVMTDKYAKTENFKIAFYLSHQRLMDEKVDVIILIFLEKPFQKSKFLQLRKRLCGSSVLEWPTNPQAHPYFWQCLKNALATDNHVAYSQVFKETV

Key:
TLR8 = TLR8 (Homo sapiens (Human), UniProt Q9NR97); experiment: TLR8 human peripheral blood mononuclear cell (PBMC) cell-based assay (Compound A as agonist; TNFα and IL12p40 readout); conditions: read-out: TLR-8 EC50, human PBMCs, TLR8 agonist Compound A at 800 nM, 6 hours, antagonist potency
TLR7 = TLR7 (Homo sapiens (Human), UniProt Q9NYK1); experiment: TLR7 human peripheral blood mononuclear cell (PBMC) cell-based assay (GS-986 as agonist; IL-6 and IFNα readout); conditions: read-out: TLR-7 EC50, human PBMCs, TLR7 agonist GS-986 at 400 nM, 6 hours, antagonist potency

Structure (SMILES) | pEC50 (TLR8) | pEC50 (TLR7) | pEC50 (TLR8; tested form: TFA) | pEC50 (TLR7; tested form: TFA)
Cc1cc(-c2[nH]c3sc(C4CCNCC4)c(C(F)F)c3c2C(C)C)cn2ncnc12 | 8.25 | 8.80 |  | 
Cc1cc(-c2[nH]c3sc(C4CCN(C(=O)[C@@H]5COCCN5)CC4)c(CO)c3c2C(C)C)cn2ncnc12 |  |  | 7.61 | 9.03
Cc1c(C2CCN(CC(N)=O)CC2)sc2[nH]c(-c3ccc(C#N)c4nccnc34)c(C(C)C)c12 | 7.08 | 7.38 |  | 

pEC50: −log10 of the molar value. Read-outs that look alike come from different tables or passages of the source.
